By Emax is commonly meant the maximal effect, on the per cent scale that the assay sets.

The experiment concerns the target T1, Apelin receptor (Mus musculus) (UniProt Q9WV08).
T1 sequence (whole entry): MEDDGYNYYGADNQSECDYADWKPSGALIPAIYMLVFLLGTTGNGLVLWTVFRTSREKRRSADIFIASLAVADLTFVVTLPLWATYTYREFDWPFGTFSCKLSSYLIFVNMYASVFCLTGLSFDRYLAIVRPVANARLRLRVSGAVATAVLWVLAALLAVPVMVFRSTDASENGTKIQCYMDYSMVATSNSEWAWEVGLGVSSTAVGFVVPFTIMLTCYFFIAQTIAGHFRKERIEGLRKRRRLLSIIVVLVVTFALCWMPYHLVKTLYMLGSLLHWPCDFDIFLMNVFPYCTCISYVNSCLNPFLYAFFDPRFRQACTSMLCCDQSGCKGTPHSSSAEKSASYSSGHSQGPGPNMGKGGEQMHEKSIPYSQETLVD
Kind of experiment: Agonist activity at Galphaq16-fused mouse APJ receptor expressed in CHO cells assessed as stimulation of Ca2+ mobilization by measuring maximum efficacy incubated for 1 hr by Calcium 5-dye based fluorescence based assay relative to control. Format: cell-based. The note with it: filed as agonist.

Regarding `COc1cccc(OC)c1-c1cc(C(=O)N[C@@H](CCN2CCCCC2)CC(=O)NC2CCC2)nn1C1CCCC1.Cl`, the Emax stood at 94%.

The record behind these values is ChEMBL document CHEMBL4823248, “Pyrazole Agonist of the Apelin Receptor Improves Symptoms of Metabolic Syndrome in Mice” (J Med Chem, 2021).
